Assay results published in PubChem BioAssay AID1259318 (Sanford-Burnham Center for Chemical Genomics, 2017).
Only a part is listed here, and it is no random draw. Calls of active or inactive are those of the source.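 How the source made its calls: active means activity above about 14% (limit read from the data; passing the limit was not always enough); inactive means the rest.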

Chains of the proteins cited; added tags and fusions are not shown. Lines headed by an entry give the natural chain unless they say otherwise; changes in a name come on top.
UniProt P20393: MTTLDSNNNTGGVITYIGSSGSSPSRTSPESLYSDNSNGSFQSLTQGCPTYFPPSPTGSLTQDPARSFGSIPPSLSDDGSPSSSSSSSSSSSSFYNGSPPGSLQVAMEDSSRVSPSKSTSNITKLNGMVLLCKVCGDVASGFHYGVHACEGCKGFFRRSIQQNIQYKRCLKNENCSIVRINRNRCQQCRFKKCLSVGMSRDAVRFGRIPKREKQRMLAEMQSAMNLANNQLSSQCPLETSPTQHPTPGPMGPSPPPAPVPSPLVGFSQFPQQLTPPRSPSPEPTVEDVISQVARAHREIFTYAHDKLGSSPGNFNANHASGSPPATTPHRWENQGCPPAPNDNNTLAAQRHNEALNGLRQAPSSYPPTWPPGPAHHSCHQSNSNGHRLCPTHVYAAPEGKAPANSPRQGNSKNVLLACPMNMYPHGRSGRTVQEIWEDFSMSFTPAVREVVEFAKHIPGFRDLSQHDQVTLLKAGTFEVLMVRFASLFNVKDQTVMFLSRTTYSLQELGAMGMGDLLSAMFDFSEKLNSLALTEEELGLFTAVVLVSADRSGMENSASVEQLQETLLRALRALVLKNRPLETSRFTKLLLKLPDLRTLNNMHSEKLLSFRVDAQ

What follows are molecules tested against Nuclear receptor subfamily 1 group D member 1 (Homo sapiens) (UniProt P20393) (assay: Rev-erbα–DNA interaction modulation – biochemical, FITC-DNA, fluorescence polarization, uHTS, primary screen (AID 1259318;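 further: 0% = DMSO wells with 35 nM protein and 100% = DMSO wells with 750 nM protein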)). Settings: Rev-erbα–FITC-DNA binding, 90 min, at 10 µM, stronger effect = higher value.

Row | Structure (SMILES) | activity
1 | CC(=O)Nc1ccc([As](=O)(O)O)c(O)c1 | inactive: -0.04%
2 | COC(=O)C1(C)COP(=O)(NCc2ccccc2)OC1 (stereo not drawn) | inactive: 7.25%
3 | N#C/C(=C\c1ccc(N(CCBr)CCBr)cc1)C(N)=O | inactive: -8.46%
4 | CC(=O)c1ccc(N2CC2c2ccncc2)cc1 (stereo not drawn) | inactive: -3.95%
5 | C[C@@H]1C=CCP(=O)(Oc2ccccc2)O1 (stereo partly drawn) | inactive: -7.04%
6 | C[C@H]1OP(=O)(Oc2ccccc2)C[C@@H]2O[C@@H]21 (stereo partly drawn) | inactive: -3%
7 | Cc1ccccc1CN(C)C(=O)COC(=O)C(O)(c1ccccc1)c1ccccc1 | inactive: 2.37%
8 | O=P1(N(CCCl)CCCl)OCCC2CCCCN21 (stereo not drawn) | inactive: 4.05%
9 | CCNC(=S)/N=C(\N)N[N+](=O)[O-] | inactive: 12.7%
10 | O=C(NC1CCS(=O)(=O)C1)NP(=S)(Oc1ccccc1)Oc1ccccc1 (stereo not drawn) | inactive: 1.91%
11 | Cc1ccc(NP(=O)(Oc2cccc(C)c2)Oc2cccc(C)c2)nc1 | inactive: 5.65%
12 | c1ccc(-c2nn[nH]n2)c(-c2nn[nH]n2)c1 | inactive: -2.04%
13 | CN(C)C(=O)Oc1noc2ccccc12 | inactive: -4.91%
14 | O=c1c2cc([N+](=O)[O-])ccc2[nH]c2c([N+](=O)[O-])cc([N+](=O)[O-])cc12 | inactive: 8.5%
15 | Cc1ccccc1OP(=O)(Nc1ccccn1)Oc1ccccc1C | inactive: 2.63%
16 | CC(NC(=O)COC(=O)C(O)(c1ccccc1)c1ccccc1)c1ccccc1 (stereo not drawn) | inactive: 5.95%
17 | CC(=O)NC(SC(=S)N(CC(C)C)CC(C)C)C(Cl)(Cl)Cl (stereo not drawn) | inactive: 9.92%
18 | Cc1ccc(OP(=O)(Nc2ccccn2)Oc2ccc(C)cc2)cc1 | inactive: -4.47%
19 | COC(=O)c1cc2c(s1)N=C(c1ccccc1)N(C)P2(=O)N1CCOCC1 (stereo not drawn) | inactive: 4.19%
20 | CCC(=O)N1C2C3N(C(=O)CC)C1C1N(C(=O)CC)C(C(N1C(=O)CC)N3C(=O)CC)N2C(=O)CC | inactive: -7.7%
21 | O=C(OC1CN2CCC1CC2)c1ccccc1 (stereo not drawn) | inactive: 0.5%
22 | Nc1ccccc1[As](=O)(O)c1ccccc1 | inactive: 0.94%

Row | Structure (SMILES) | activity
23 | O=C(O)COc1ccc([As](=O)(O)O)cc1[N+](=O)[O-] | inactive: 1.76%
24 | O=P(Nc1nccs1)(Oc1ccccc1)Oc1ccccc1 | inactive: -2.45%
25 | CCOP1(=S)c2c(C)nn(CCC#N)c2N=C(c2ccccc2F)N1C (stereo not drawn) | inactive: 5.86%
26 | CN(C(=O)Cc1ccc(Cl)c(Cl)c1)[C@H]1CC[C@@]2(CCCO2)C[C@@H]1N1CCCC1 | inactive: -4.39%
27 | CN(C)C(=O)c1cc([N+](=O)[O-])cc2c1-c1c(cc([N+](=O)[O-])cc1[N+](=O)[O-])C2=O | inactive: 4.93%
28 | O=[N+]([O-])c1ccc2c(c1)nnn2O | inactive: 0.16%
29 | CCOP1(=S)c2c(C)nn(CCC#N)c2N=C(c2ccc(F)cc2)N1C (stereo not drawn) | inactive: 1.38%
30 | CN(C(=O)Cc1ccccc1)[C@@H]1CC[C@]2(CCCO2)C[C@H]1N1CCCC1 | inactive: -6.56%
31 | N#CCCN(C(=O)COC(=O)C(O)(c1ccccc1)c1ccccc1)c1ccc(F)cc1 | inactive: 1.97%
32 | O=[As](O)(c1cccc(O)c1)c1cccc(O)c1 | inactive: -4.37%
33 | Cc1cccc(OCC(=O)OC2CN3CCC2CC3)c1 (stereo not drawn) | inactive: -1.83%
34 | CS(=O)(=O)c1ccc(Cl)c(NC(=O)COC(=O)C(O)(c2ccccc2)c2ccccc2)c1 | inactive: -6.15%
35 | COc1cc(C(=O)NCC2(N3CCOCC3)CCCCC2)cc(Cl)c1OC(C)C | inactive: 2.86%
36 | O=[As](O)(O)c1cccnc1 | inactive: -0.76%
37 | O=C(OC1CN2CCC1CC2)c1ccc(Cl)cc1 (stereo not drawn) | inactive: 0.28%
38 | CCOP(=O)(Nc1cccc2ccccc12)OCC | inactive: 1.13%
39 | COc1cc(C2NCCC3(OCCO3)C2(C)C)cc(OC)c1OC (stereo not drawn) | inactive: -3.65%
40 | CCCOP(=S)(Nc1nc(N)cc(=O)[nH]1)OCCC | inactive: 0.86%
41 | Cc1ccc(NCCc2c([N+](=O)[O-])cc([N+](=O)[O-])cc2[N+](=O)[O-])cc1 | inactive: 0.42%
42 | Nc1cccc2c([As](=O)(O)O)cccc12 | inactive: -18%
43 | CC(C)(C)C(=O)NC(Sc1ncccn1)C(Cl)(Cl)Cl (stereo not drawn) | inactive: 12.1%
44 | O=P1(N(CCCl)CCCl)NCCC(C(F)(F)F)O1 (stereo not drawn) | inactive: -5.86%

Row | Structure (SMILES) | activity
45 | Clc1n[nH]nc1-c1nn[nH][15n]1 | inactive: 5.31%
46 | CN(CCCl)Cc1cc(Cl)c(NC2=NCCN2)c(Cl)c1 | inactive: 1.81%
47 | CCOP(=O)(Nc1ccc(C)cn1)OCC | inactive: 0.37%
48 | CCOP(=O)(NC(=NC(C)c1ccccc1)NC(C)c1ccccc1)OCC (stereo not drawn) | inactive: 1.56%
49 | O=P1(Nc2ccccn2)COc2ccccc2OC1 | inactive: 1.15%
50 | CCC1=CC2Cc3nc4ccc(Cl)cc4c(N)c3C(C1)C2 (stereo not drawn) | inactive: -1.59%
51 | CC1(CBr)Cn2c(nc3ccccc3c2=O)S1 (stereo not drawn) | inactive: -4.33%
52 | CN(C(=O)Cc1ccc(Cl)c(Cl)c1)C1CCCC[C@@H]1N1CCCC1 (stereo partly drawn) | inactive: 0%
53 | CC(C)/C=N\N=C(\N)N[N+](=O)[O-] | inactive: 1.15%
54 | CN(C(=O)Cc1ccc(Cl)c(Cl)c1)[C@@H]1CCCC[C@H]1N1CCCC1 | inactive: 4.99%
55 | COc1ccccc1CNC(=O)COC(=O)C(O)(c1ccccc1)c1ccccc1 | inactive: 1.2%
56 | CCCC1OP(=O)(Nc2ccccc2)OCC1CC (stereo not drawn) | inactive: -8.6%
57 | O=C(/C=C/c1ccccc1)OC1CN2CCC1CC2 (stereo not drawn) | inactive: -6.87%
58 | CN(C)C1(CNC(=O)c2ccc(S(C)(=O)=O)cc2)CCCCC1 | inactive: 5.09%
59 | CC1CCC(C(C)C)C(OP(=O)(Nc2ccccn2)c2ccccc2)C1 (stereo not drawn) | inactive: -1.99%
60 | Cc1ccc(C(=O)OC2CN3CCC2CC3)cc1 (stereo not drawn) | inactive: -8.84%
61 | Cc1nn(-c2ccccc2)c2c1P(=O)(N1CCOCC1)N(C)C(c1ccccc1)=N2 (stereo not drawn) | inactive: 0%
62 | O=P1(Nc2ccc(Br)cn2)COc2ccccc2OC1 | inactive: -2.38%
63 | NS(=O)(=O)c1cccc(NC(=O)COC(=O)C(O)(c2ccccc2)c2ccccc2)c1 | inactive: 7.44%
64 | Cc1ccc(OCC(=O)OC2CN3CCC2CC3)cc1 (stereo not drawn) | inactive: 0.77%
65 | O=[As](O)(c1cccs1)c1cccs1 | inactive: 0.16%
66 | Nc1cccc([As](=O)(O)c2ccccc2)c1 | inactive: 9.49%

Row | Structure (SMILES) | activity
67 | O=P1(Nc2ncccn2)COc2ccccc2OC1 | inactive: -1.16%
68 | Cc1ccc(S(=O)(=O)N(CCCN)CCCc2c(C)nc(N)[nH]c2=O)cc1 | inactive: 0.76%
69 | Cc1cc(SC(NC(=O)c2ccccc2)C(Cl)(Cl)Cl)nc(C(C)C)n1 (stereo not drawn) | inactive: -2.49%
70 | CCCCOc1ccc(C(=O)NCC2(N3CCCCC3)CCCCC2)cc1OC | inactive: -2.85%
71 | COP(=O)(OC)N1CC1c1ccccc1 (stereo not drawn) | inactive: -2.03%
72 | CC1CCNP(=O)(N(CCCl)CCCl)O1 (stereo not drawn) | inactive: -9.54%
73 | CCOC(=O)Nc1ccc([As](=O)(O)O)c(O)c1 | inactive: 4.88%
74 | O=C(O)C(O)c1ccc(N(CCCl)CCCl)cc1 (stereo not drawn) | inactive: -2.11%
75 | O=[N+]([O-])c1ccc(Nc2ccc(Oc3ccc([N+](=O)[O-])cc3[N+](=O)[O-])cc2)c([N+](=O)[O-])c1 | inactive: 6.57%
76 | O=P(Nc1ccccn1)(c1cccc2ccccc12)c1cccc2ccccc12 | inactive: -0.35%
77 | Cc1cc(SC(NC=O)C(Cl)(Cl)Cl)ncn1 (stereo not drawn) | inactive: 4.11%
78 | CCOC(=O)Nc1cccc([As](=O)(O)O)c1 | inactive: 4.43%
79 | O=C(Nc1ccncc1[N+](=O)[O-])c1ccc([N+](=O)[O-])cc1[N+](=O)[O-] | inactive: -0.8%
80 | O=C(COc1ccccc1)OC1CN2CCC1CC2 (stereo not drawn) | inactive: -0.86%
81 | O=C(O)C(=O)c1ccc(N(CCCl)CCCl)cc1 | inactive: 2.99%
82 | COC(=O)C1(C)COP(=O)(N2CCCC2)OC1 (stereo not drawn) | inactive: -3.43%
83 | COP1(=S)c2c(C)nn(CCC#N)c2N=C(c2ccc(F)cc2)N1C (stereo not drawn) | inactive: 2.48%
84 | CCC(C)N(CC(C)C)C(=S)SC(NC(C)=O)C(Cl)(Cl)Cl (stereo not drawn) | inactive: 2.53%
85 | CCOC(=O)c1ccc(NC(=O)C(C)(CCl)SC)cc1 (stereo not drawn) | inactive: 0.28%
86 | O=C(OC1CN2CCC1CC2)c1cccc([N+](=O)[O-])c1 (stereo not drawn) | inactive: 3.24%
87 | COc1cc(I)ccc1[As](=O)(O)O | inactive: 1.43%
88 | COc1ccc2nc(NP(=O)(c3ccccc3)c3ccccc3)sc2c1 | inactive: -0.72%

Row | Structure (SMILES) | activity
89 | O=P1(N(CCCl)CCCl)Nc2ccccc2N1 | inactive: 10.5%
90 | O=P1(N(CCCl)CCCl)OCCCN1CCCl (stereo not drawn) | inactive: -2.6%
91 | Cc1cc(=O)[nH]c(N[N+](=O)[O-])n1 | inactive: 0.87%
92 | O=C(OC1CN2CCC1CC2)C12CC3CC(CC(C3)C1)C2 (stereo not drawn) | inactive: -2.28%
93 | Cc1c2c(nc3ccccc13)SC(C(Cl)Cl)C2 (stereo not drawn) | inactive: 0.36%
94 | COc1ccc(N/C(=N/P(=O)(N2CCOCC2)N2CCOCC2)N2CCOCC2)cc1 | inactive: 2.81%
95 | O=[N+]([O-])c1cc(Oc2ccc([N+](=O)[O-])cc2C(F)(F)F)cc([N+](=O)[O-])c1 | inactive: 2.48%
96 | Cc1ccc2nc3c(c(C)c2c1)CC(C(Cl)Cl)S3 (stereo not drawn) | inactive: 3.14%
97 | [N-]=[N+]=NC1CCCCC1NC(=O)c1cc([N+](=O)[O-])cc([N+](=O)[O-])c1 (stereo not drawn) | inactive: -0.89%
98 | Cc1ccc(OP(=O)(Nc2ccc([N+](=O)[O-])cn2)Oc2ccc(C)cc2)cc1 | inactive: 1%
99 | COc1cc(C(=O)NCC2(N3CCOCC3)CCCCC2)ccc1OCC(C)C | inactive: 5.99%
100 | O=[N+]([O-])c1ccc(-c2cc([N+](=O)[O-])c(O)c([N+](=O)[O-])c2)cc1 | inactive: -3.72%
101 | C[As](=O)(O)c1cccc(C(=O)O)c1 | inactive: 2.42%
102 | O=[As](O)(c1ccc(O)cc1)c1ccccc1O | inactive: -6.08%
103 | CCN(CC)C(=S)SC(NC=O)C(Cl)(Cl)Cl (stereo not drawn) | inactive: 1.67%
104 | O=C(OC1CN2CCC1CC2)c1cccc2[nH]cnc12 (stereo not drawn) | inactive: -3.02%
105 | CC(C)NC(=O)NP(=O)(Oc1ccccc1)Oc1ccccc1 | inactive: 5.65%
106 | CC(C)c1ccc(OP(=O)(Nc2ccccn2)Oc2ccccc2F)cc1 (stereo not drawn) | inactive: 1.42%
107 | COC(=O)C1(C)COP(=O)(N2CCCCCC2)OC1 (stereo not drawn) | inactive: 3.84%
108 | ClCCSc1nnc(-c2cccnc2)o1 | inactive: 5.44%
